From patent publication US5961978A, “Therapeutically useful peptides and peptide fragments” (Norsk Hydro, a.s., priority 1991, dated 1999)

Test system: PBMC
Assay: In vitro stimulation of PBMC from healthy donors with p21 ras peptide mixtures (3H-thymidine incorporation)
Type: cell-based, human
Conditions: PBMC 100000 cells per well; IL2 1 U/ml where added
Procedure: Mononuclear cells from peripheral blood (PBMC) were isolated from defibrinated blood by centrifugation on Lymphoprep (Nycomed, Oslo, Norway). Washed PBMC were resuspended in RPMI 1640 (Gibco, Paisley, Scotland) supplemented with 100 IU/ml penicillin, streptomycin (100 μg/ml) and 15% autologous serum, and the indicated amounts of synthetic peptides and incubated in a 5% CO2 incubator at 37° C. All of the peptides representing mutations in position 12 and 13 contain an additional alanine or valine in the C-terminus.
Cultures were incubated for 2 days at 37° C. in a 5% CO2 incubator, and pulsed overnight with 1 μCi of ^3 H-thymidine (Amersham, England) per well before harvesting onto glass fibre filters by an automated cell harvester (Scatron, Lierbyen, Norway). Thymidine incorporation into DNA was quantitated by liquid scintillation counting using an LKB 1205 Betaplate Liquid Scintillation counter. Data are given as medians of triplicate cultures. Controls included T cell clones cultured alone, or with APC in the absence of peptides. The panels are scaled according to the magnitude of the positive response.
Peripheral blood mononuclear cells from healthy donors were stimulated in vitro with mixtures of synthetic p21 ras peptides according to the present invention as described in FIG. 1.
No primary response against the peptide mixtures could be observed. […]

## IL2: recombinant human IL-2, 1 U/ml final dilution
  PRIMARY RESPONSE: 14060,7 CPM
  RESPONSE AFTER THE THIRD STIMULATION WITH PEPTIDE-MIXTURE III: 29768,4 CPM
